Data reported in patent US20140045856A1, “4-Methyl-2,3,5,9,9b-pentaaza-cyclopenta[a]naphthalenes” (BOEHRINGER INGELHEIM INTERNATIONAL GMBH, priority 2012, published 2014).

Chains of the proteins cited; added tags and fusions are not shown.
UniProt O00408, whole entry, species assumed: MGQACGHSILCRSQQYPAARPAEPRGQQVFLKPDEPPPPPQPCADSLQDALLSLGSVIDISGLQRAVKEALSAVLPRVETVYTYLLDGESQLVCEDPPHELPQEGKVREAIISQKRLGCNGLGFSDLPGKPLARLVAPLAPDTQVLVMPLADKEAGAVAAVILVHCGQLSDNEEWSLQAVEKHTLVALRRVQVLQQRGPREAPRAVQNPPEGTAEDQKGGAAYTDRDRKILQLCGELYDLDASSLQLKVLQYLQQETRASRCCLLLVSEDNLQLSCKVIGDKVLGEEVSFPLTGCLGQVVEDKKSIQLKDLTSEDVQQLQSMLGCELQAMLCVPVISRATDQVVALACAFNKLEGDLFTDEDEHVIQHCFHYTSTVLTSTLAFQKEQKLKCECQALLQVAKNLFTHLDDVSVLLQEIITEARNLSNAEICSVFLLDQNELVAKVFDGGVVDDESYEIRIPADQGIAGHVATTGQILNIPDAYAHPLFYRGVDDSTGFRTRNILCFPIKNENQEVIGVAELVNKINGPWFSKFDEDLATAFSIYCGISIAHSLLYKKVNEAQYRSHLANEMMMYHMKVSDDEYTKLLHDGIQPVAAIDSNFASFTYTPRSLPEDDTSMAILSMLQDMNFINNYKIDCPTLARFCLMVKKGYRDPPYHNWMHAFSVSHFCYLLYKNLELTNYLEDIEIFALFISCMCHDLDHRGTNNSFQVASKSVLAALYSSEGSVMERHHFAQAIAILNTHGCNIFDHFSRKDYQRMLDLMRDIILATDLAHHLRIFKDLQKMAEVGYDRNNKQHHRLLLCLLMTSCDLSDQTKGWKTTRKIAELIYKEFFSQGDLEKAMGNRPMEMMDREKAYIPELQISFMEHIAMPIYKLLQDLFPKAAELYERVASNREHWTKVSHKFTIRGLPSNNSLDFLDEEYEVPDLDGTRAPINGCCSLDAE
UniProt Q9Y233, whole entry, species assumed: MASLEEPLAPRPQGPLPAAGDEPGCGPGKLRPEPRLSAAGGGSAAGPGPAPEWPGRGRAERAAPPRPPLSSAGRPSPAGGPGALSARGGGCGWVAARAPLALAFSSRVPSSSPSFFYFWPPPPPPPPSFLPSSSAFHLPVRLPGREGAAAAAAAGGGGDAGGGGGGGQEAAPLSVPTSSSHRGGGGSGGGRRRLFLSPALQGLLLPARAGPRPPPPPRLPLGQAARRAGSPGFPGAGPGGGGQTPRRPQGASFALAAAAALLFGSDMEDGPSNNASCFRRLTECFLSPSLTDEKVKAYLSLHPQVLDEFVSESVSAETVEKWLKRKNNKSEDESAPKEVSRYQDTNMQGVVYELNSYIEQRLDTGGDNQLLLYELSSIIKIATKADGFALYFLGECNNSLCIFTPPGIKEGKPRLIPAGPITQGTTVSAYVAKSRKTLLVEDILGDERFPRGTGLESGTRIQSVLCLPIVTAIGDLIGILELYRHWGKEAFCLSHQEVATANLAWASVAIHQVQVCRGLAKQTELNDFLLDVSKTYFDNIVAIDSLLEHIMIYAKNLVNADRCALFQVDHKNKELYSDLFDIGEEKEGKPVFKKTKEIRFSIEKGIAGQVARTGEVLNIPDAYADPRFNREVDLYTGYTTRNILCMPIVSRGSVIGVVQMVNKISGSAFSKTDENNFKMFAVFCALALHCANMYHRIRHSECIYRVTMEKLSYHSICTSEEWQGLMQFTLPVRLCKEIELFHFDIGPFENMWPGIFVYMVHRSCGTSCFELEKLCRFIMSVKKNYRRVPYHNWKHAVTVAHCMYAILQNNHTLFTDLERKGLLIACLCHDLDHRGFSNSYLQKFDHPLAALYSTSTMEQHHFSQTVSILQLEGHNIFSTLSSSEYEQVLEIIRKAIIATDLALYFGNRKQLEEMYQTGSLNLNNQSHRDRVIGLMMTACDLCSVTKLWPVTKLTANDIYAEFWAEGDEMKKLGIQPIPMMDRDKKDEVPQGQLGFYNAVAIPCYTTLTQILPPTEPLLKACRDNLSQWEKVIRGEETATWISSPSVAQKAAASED

Assays:
Format in all cases: biochemical
PDE2A [1] = target: T1, PDE2A (Homo sapiens, UniProt O00408); assay: Radioactive PDE2 assay ([3H]cAMP SPA)
PDE 10A = PDE 10A (Homo sapiens, UniProt Q9Y233); assay: Radioactive PDE10 assay ([3H]cAMP SPA)
PDE2A [2] = target: T1, PDE2A; assay: PDE 2A assay with fluorescent substrate (IMAP, fluorescence polarization); settings: read-out: PDE2 IC50
PDE10 = PDE10 (Homo sapiens, UniProt Q9Y233); assay: PDE10 assay with fluorescent substrate (IMAP, fluorescence polarization)
[3] = IMAP fluorescent, read-out: PDE10 IC50

Row | Compound | IC50 (PDE2A [2]) [nM] | IC50 (PDE10; [3]) [nM] | also measured
1 | Cc1nc2cccnc2n2c(-c3cc(OCCC(C)(C)O)ccc3Cl)nnc12 [Example 14] | – | – | IC50 (PDE2A [1]): 202 nM; IC50 (PDE 10A): 3580 nM
2 | Cc1nc2cccnc2n2c(-c3cc(O[C@@H]4CCOC4)ccc3Cl)nnc12 [Example 23] | – | 9190 | IC50 (PDE 10A): 5100 nM
3 | Cc1ccc2nc(C)c3nnc(-c4cc(OCCO)ccc4Cl)n3c2n1 [Example 28] | 20 | 299 | IC50 (PDE2A [1]): 9 nM
4 | Cc1ccc(C(C)(C)O)cc1-c1nnc2c(C)nc3cc(C(C)C)cnc3n12 [Example 79] | – | 305 | –
5 | Cc1ccc(OCC(C)(C)O)cc1-c1nnc2c(C)nc3ccc(C(C)C)nc3n12 [Example 51] | – | 2150 | –
6 | Cc1nc2cccnc2n2c(-c3cc(OCC(C)O)ccc3Cl)nnc12 (stereo not shown) [Example 16] | 98 | 8700 | IC50 (PDE2A [1]): 58 nM; IC50 (PDE 10A): 1880 nM
7 | Cc1nc2ccc(C3CC3)nc2n2c(-c3cc(C(C)(C)CO)ccc3F)nnc12 [Example 101] | 47 | – | –
8 | Cc1nc2ccc(C3CC3)nc2n2c(-c3cc(OC4CCOCC4)ccc3Cl)nnc12 [Example 32a] | 6 | – | –
9 | Cc1nc2ccc(C3CC3)nc2n2c(-c3cc(OCC(C)(C)O)ccc3Cl)nnc12 [Example 45] | – | – | IC50 (PDE10; PDE10 IC50, IMAP fluorescent): 1490 nM
10 | Cc1ccc2nc(C)c3nnc(-c4cc(OC5CCOCC5)ccc4Cl)n3c2n1 [Example 32] | 26 | 6700 | IC50 (PDE2A [1]): 3 nM; IC50 (PDE 10A): 1760 nM
11 | Cc1ccc2nc(C)c3nnc(-c4cc(C5(O)CCC5)ccc4Cl)n3c2n1 [Example 89] | 18 | – | –
12 | Cc1ccc2nc(C)c3nnc(-c4cc(OCC(C)(C)O)ccc4Cl)n3c2n1 [Example 46] | – | 1040 | –
13 | Cc1nc2cccnc2n2c(-c3cc(OC[C@@H](C)O)ccc3Cl)nnc12 [Example 17] | 162 | 10200 | IC50 (PDE2A [1]): 98 nM; IC50 (PDE 10A): 5720 nM
14 | Cc1nc2ccc(C3CC3)nc2n2c(-c3cc(C4(O)CCC4)ccc3Cl)nnc12 [Example 88] | – | 302 | –
15 | Cc1nc2ccc(C3CC3)nc2n2c(-c3cc(C4(O)CCOCC4O)ccc3F)nnc12 (single isomer, unassigned) [Example 105b] | 38 | – | –
16 | Cc1nc2cccnc2n2c(-c3cc(O[C@H]4CCOC4)ccc3Cl)nnc12 [Example 24] | – | – | IC50 (PDE 10A): 6690 nM
17 | Cc1nc2ccc(C(F)(F)F)nc2n2c(-c3cc(C4(O)CCOC4)ccc3F)nnc12 (stereo not shown) [Example 96c] | 591 | – | –
18 | Cc1ccc2nc(C)c3nnc(-c4cc(OC[C@@H](C)O)ccc4Cl)n3c2n1 [Example 35] | – | 1480 | IC50 (PDE 10A): 1300 nM
19 | Cc1nc2ccc(C(F)(F)F)nc2n2c(-c3cc(C(C)(C)O)ccc3Cl)nnc12 [Example 103b] | 100 | – | –
20 | Cc1nc2ccc(C3(C)CC3)nc2n2c(-c3cc(C(C)(C)O)ccc3F)nnc12 [Example 72] | – | 2860 | –
21 | Cc1nc2ccc(C(F)(F)F)nc2n2c(-c3cc(C4(O)CCOCC4)ccc3Cl)nnc12 [Example 96] | – | 5940 | –
22 | Cc1nc2ccc(C3CC3)nc2n2c(-c3cc(O)ccc3F)nnc12 [Example 5] | 3 | – | –
23 | CCC(O)c1ccc(Cl)c(-c2nnc3c(C)nc4ccc(C)nc4n23)c1 (stereo not shown) [Example 62] | – | 1300 | –
24 | Cc1nc2cccnc2n2c(-c3cc(O)ccc3Cl)nnc12 [Example 1] | 41 | – | IC50 (PDE2A [1]): 16 nM
25 | Cc1ccc2nc(C)c3nnc(-c4cc(OCCCO)ccc4Cl)n3c2n1 [Example 27] | 18 | – | IC50 (PDE2A [1]): 4 nM

Further lines, with some results ahead:

Row | IC50 (PDE2A [2]) [nM] | IC50 (PDE10; [3]) [nM] | Compound | also measured
26 | 54 | – | Cc1nc2ccc(C3CC3)nc2n2c(-c3cc(OC4COCC4O)ccc3Cl)nnc12 (single isomer, unassigned) [Example 58a] | –
27 | – | 2080 | Cc1ccc2nc(C)c3nnc(-c4cc(C(C)(C)O)ccc4Cl)n3c2n1 [Example 71] | –
28 | 6 | 45 | Cc1ccc(OC2COCC2O)cc1-c1nnc2c(C)nc3ccc(C4CC4)nc3n12 (racemic) [Example 57] | –
29 | 104 | – | Cc1nc2ccc(C3CC3)nc2n2c(-c3cc(C4(O)CCOCC4O)ccc3F)nnc12 (single isomer, unassigned) [Example 105a] | –
30 | – | 9320 | Cc1nc2cccnc2n2c(-c3cc(OC4CCOC4)ccc3Cl)nnc12 (stereo not shown) [Example 22] | –
31 | 57 | 3010 | Cc1ccc2nc(C)c3nnc(-c4cc(O[C@H]5CCOC5)ccc4Cl)n3c2n1 [Example 43] | –
32 | 229 | 254 | Cc1ccc(O)cc1-c1nnc2c(C)nc3cccnc3n12 [Example 10] | –
33 | 214 | – | Cc1nc2cccnc2n2c(-c3cc(CCC(C)(C)O)ccc3F)nnc12 [Example 65] | –
34 | 12 | 167 | Cc1ccc(OC2COCC2O)cc1-c1nnc2c(C)nc3ccc(C4CC4)nc3n12 (single isomer, unassigned) [Example 57a] | –
35 | – | 3420 | Cc1ccc2nc(C)c3nnc(-c4cc(OCCCOC(F)(F)F)ccc4Cl)n3c2n1 [Example 33] | IC50 (PDE 10A): 2500 nM
36 | 23 | – | Cc1nc2ccc(C3CC3)nc2n2c(-c3cc(C4(O)CCOCC4O)ccc3F)nnc12 (racemic) [Example 105] | –
37 | 8 | – | Cc1nc2ccc(C3CC3)nc2n2c(-c3cc(OC4COCC4O)ccc3Cl)nnc12 (single isomer, unassigned) [Example 56a] | –
38 | 1 | – | Cc1nc2ccc(C3CC3)nc2n2c(-c3cc(OC4COCC4O)ccc3Cl)nnc12 (single isomer, unassigned) [Example 56b] | –
39 | – | 2140 | Cc1ccc2nc(C)c3nnc(-c4cc(OC[C@H](C)O)ccc4Cl)n3c2n1 [Example 34] | IC50 (PDE 10A): 1890 nM
40 | 3 | 91 | Cc1ccc(OC2COCC2O)cc1-c1nnc2c(C)nc3ccc(C4CC4)nc3n12 (single isomer, unassigned) [Example 57b] | –
41 | – | 8710 | Cc1nc2cccnc2n2c(-c3cc(OC4CCC(O)C4)ccc3Cl)nnc12 (stereo not shown) [Example 40] | IC50 (PDE 10A): 3470 nM
42 | – | 1520 | Cc1ccc(OCC(C)(C)O)cc1-c1nnc2c(C)nc3ccc(C4CC4)nc3n12 [Example 48] | –
43 | 90 | 8420 | Cc1nc2cccnc2n2c(-c3cc(OC[C@H](C)O)ccc3Cl)nnc12 [Example 18] | IC50 (PDE2A [1]): 71 nM; IC50 (PDE 10A): 3010 nM
44 | 4 | – | Cc1nc2ccc(C(C)C)nc2n2c(-c3cc(C(C)(C)O)ccc3Cl)nnc12 [Example 77] | –
45 | 77 | – | Cc1nc2cccnc2n2c(-c3cc(OC4CCOCC4)ccc3Cl)nnc12 [Example 20] | IC50 (PDE2A [1]): 28 nM

Like-named read-outs stand apart in the source and are kept apart here.
